Apparent affinities of Ab-14 variants for a coronavirus HR2 peptide

Antigen: PDVDLGDISGINAS, a 14-residue peptide of the SARS-CoV-2 spike HR2 region.

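Designed CDR sequences, proposed from the first random library and measured here. Group labels follow the data file (Ctrl: baseline library sampled from a position-specific scoring matrix, with some repeated check sequences; Rand: our label for a block that the file lists under HC and that is probably the random mutants of the ten best first-round binders; En: ensemble of fine-tuned language models; GP: Gaussian process model; GPLM: also part of the Gaussian process libraries; HC: hill climbing; Gen: genetic algorithm; Gibbs: Gibbs sampling; a sequence that several methods proposed may carry one label only). Affinity was read by AlphaSeq, a pooled yeast mating assay with surface-displayed partners. The frequency of each diploid, read from paired DNA barcodes, reflects how well the two displayed proteins bind. A regression on co-assayed BCL2-family reference pairs converts the normalised counts of each replicate to an apparent Kd. The assay was run in six technical replicates.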

The variants keep the light chain, the linker and the frameworks of Ab-14 (scFv order VH, three GGGGS repeats, VL).
VH: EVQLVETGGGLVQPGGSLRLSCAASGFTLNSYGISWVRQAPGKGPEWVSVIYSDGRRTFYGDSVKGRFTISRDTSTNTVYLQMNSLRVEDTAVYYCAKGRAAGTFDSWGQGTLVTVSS
VL: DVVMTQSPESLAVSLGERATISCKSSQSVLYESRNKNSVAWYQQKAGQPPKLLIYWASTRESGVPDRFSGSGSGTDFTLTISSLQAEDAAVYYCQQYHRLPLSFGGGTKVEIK

Changes read parent residue, position, new residue, counted from the first residue of the VH shown. Variants here have at most six changes. Kd is apparent (estimated from mating counts) and averaged on the log scale over replicates with a signal. Smaller is tighter. "not detected" marks a missing value. The strain was present, yet no cells mated with the target were sequenced in any replicate, which points to weak or no binding. A sequence that the file lists under several names has all its replicates pooled.

changes	group	Kd	replicates with signal	signal with controls
T28Y/A101T	GPLM_Gen	23 nM	1/6	1/18
R56K/S63Q/R100K	Ctrl	100 nM	5/6	0/18
T28D/R100K/A101S	GPLM_Gen	3.1 nM	6/6	0/18
T28D/G61A/S63A/A101M	GP_Gibbs	3.0 nM	6/6	0/18
T28D/G61K/A101E/S107V	GP_Gibbs	470 pM	6/6	2/18
N30D/G61V	GP_HC	3.8 nM	2/6	0/18
G61S/R100Q/A101L/S107R	GPLM_HC	8.3 nM	6/6	3/18
T28S/G61Q/R100T	GPLM_Gen	1.6 nM	6/6	0/18
R56K/G61S/R100E/S107R	GP_Gibbs	not detected	0/6	0/18
T28S/S31D/A101T/S107A	GPLM_Gen	580 pM	6/6	1/18
T28K/G61T/R100K/A101E	GPLM_Gibbs	1.4 nM	6/6	0/18
G103K/S107W	Ctrl	not detected	0/6	0/18
F27M/T28S/A101T	GPLM_Gen	3.3 nM	5/6	0/18
N30E/A102S	Ctrl	1.9 µM	1/6	0/18
R56M/A102S	Ctrl	not detected	0/6	0/18
G26D/G55R/G61T/R100Y	Ctrl	not detected	0/6	0/18
T28E/S31N/G61D/R100Q/A101L	GP_HC	2.1 nM	6/6	0/18
T28N/R100N/S107V	Ctrl	7.0 nM	5/6	0/18
S31Q/A102K	Ctrl	9.6 nM	6/6	1/18
G26K/R100K/D106F	Ctrl	8.7 nM	1/6	0/18
S31D/Y32M/A101E/S107T	Ctrl	7.9 nM	6/6	0/18
T28F/S31E/R100G/G103V/S107Q	Rand	not detected	0/6	0/18
T28W/N30D/R100W/A101V/G103D	Ctrl	not detected	0/6	1/18
G61A/R100Q/A101M/S107M	Ctrl	29 nM	4/6	0/18
N30D/F59A/R100I	Ctrl	4.4 nM	6/6	0/18
T28D/G61I/R100E	GPLM_Gibbs	810 pM	6/6	0/18
T28K/F59A/A102P/F105M/D106E	Ctrl	not detected	0/6	0/18
S53A/R100Q/S107Q	GPLM_Gen	2.4 nM	6/6	2/18
G61D/V64T/S107L	Ctrl	not detected	0/6	0/18
T28E/S53A/A101N	Ctrl	not detected	0/6	0/18
G26P/T28E/S53A/S107V	GP_Gibbs	not detected	0/6	0/18
G26N/T28D/A101W	GP_HC	58 nM	4/6	0/18
L29V/R56Q/A101V/D106K	Ctrl	11 nM	6/6	2/18
S31E/G103V/D106G/S107K	GP_HC	not detected	0/6	0/18
T58Q/S107R	Ctrl	not detected	0/6	0/18
N30G/S35H/R56K/G61S/R100T/S107T	Ctrl	11 nM	5/6	1/18
T28S/S31W/G61I/A101E	GP_HC	not detected	0/6	0/18
T28A/G61H/R100Q	Ctrl	6.7 nM	6/6	1/18
S53N/R100Y	Ctrl	not detected	0/6	0/18
L29S/S31D/R57Q/Y60Q/G103L/D106I	Rand	not detected	0/6	0/18
T28D/I34S	Ctrl	not detected	0/6	0/18
S31E/G61T/A101L/S107K	GPLM_HC	1.9 nM	6/6	1/18
T28D/S31E/S53A/G61I/R100T/S107V	En_HC	240 pM	6/6	0/18
L29R/R100E	Ctrl	not detected	0/6	0/18
F27A/L29I/S107W	Ctrl	not detected	0/6	0/18
T28E/S31E/R100K/A101H	GP_Gibbs	810 pM	6/6	0/18
S107E	Ctrl	not detected	0/6	0/18
T28D/G61A/S63P/A101T	GP_Gen	1.4 nM	6/6	0/18
T28S/R100Q/S107N	GPLM_Gen	2.9 nM	4/6	0/18
T28Q/S63Q/A101N	GP_Gibbs	18 nM	5/6	0/18
G26K/L29P/S31E/G61Q/D62G	Ctrl	37 nM	1/6	0/18
S31E/F59M/G61T/A101Q	GP_HC	3.8 nM	6/6	0/18
S31E/G61H/D106W/S107T	GP_HC	620 pM	6/6	0/18
T28S/G61V/S63M/R100Q/A101T	GP_Gibbs	not detected	0/6	0/18
Y52I/D62G/F105D/D106N	Ctrl	not detected	0/6	0/18
F27N/S35Q	Ctrl	24 nM	6/6	1/18
F27K/S31E/G61T/A101F/D106L	Rand	not detected	0/6	0/18
R56M/R100Q/A101T/S107V	GP_Gibbs	19 nM	6/6	0/18
G61K/R100K	Ctrl+GP_Gibbs	38 nM	12/12	1/36
G26D/N30T/S31E/A102R	Ctrl	not detected	0/6	0/18
R56E/F59S/G61H/R100T	Ctrl	not detected	0/6	0/18
G99N/R100M	Ctrl	not detected	0/6	0/18
R56V/G61Y	Ctrl	not detected	0/6	0/18

The closing 4 entries, repeated:

changes,group,Kd,replicates with signal,signal with controls
G26D/N30T/S31E/A102R,Ctrl,not detected,0/6,0/18
R56E/F59S/G61H/R100T,Ctrl,not detected,0/6,0/18
G99N/R100M,Ctrl,not detected,0/6,0/18
R56V/G61Y,Ctrl,not detected,0/6,0/18

The range of this assay differs from that of the first round, and the authors advise against merging the two. The authors' rule: three or more of the six replicates give a measured affinity, fewer mean a poor binder. Background: pairings of all heavy chain designs with three empty control strains gave a value in 1% of cases (median 120 nM, 5th percentile 7.0 nM). Values in that range, when seen in few replicates, are hard to tell from nonspecific mating. Also given: how often the same scFv was detected with the empty control strains.

The measurements come from Li et al. 2023 (doi:10.1038/s41467-023-39022-2) through the FLAb antibody collection.